{"sequences": {"note": "Chains of the proteins cited; added tags and fusions are not shown.", "UniProt Q06124, whole entry": "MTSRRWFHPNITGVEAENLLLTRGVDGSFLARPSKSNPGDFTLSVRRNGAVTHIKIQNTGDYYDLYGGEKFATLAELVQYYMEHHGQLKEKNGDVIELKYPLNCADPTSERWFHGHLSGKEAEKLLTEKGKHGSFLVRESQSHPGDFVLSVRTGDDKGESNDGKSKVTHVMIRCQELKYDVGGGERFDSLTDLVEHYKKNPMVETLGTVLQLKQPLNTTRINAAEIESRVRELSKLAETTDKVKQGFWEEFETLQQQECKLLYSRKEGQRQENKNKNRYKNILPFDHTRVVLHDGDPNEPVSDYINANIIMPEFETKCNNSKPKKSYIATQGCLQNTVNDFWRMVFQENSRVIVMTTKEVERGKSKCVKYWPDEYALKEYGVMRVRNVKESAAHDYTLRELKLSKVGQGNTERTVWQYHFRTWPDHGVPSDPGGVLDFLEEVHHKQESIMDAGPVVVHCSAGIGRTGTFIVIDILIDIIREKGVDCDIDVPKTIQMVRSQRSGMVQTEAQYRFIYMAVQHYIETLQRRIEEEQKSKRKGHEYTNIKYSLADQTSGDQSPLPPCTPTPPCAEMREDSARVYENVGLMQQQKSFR"}, "source": "ChEMBL document CHEMBL5143569", "about": "(Eur J Med Chem, 2022)", "biological_target": "Tyrosine-protein phosphatase non-receptor type 11 (Homo sapiens, UniProt Q06124)", "note": "pIC50: −log10 of the molar value.", "data": [{"smiles": "NCC1CCN(c2cnc(-c3cccc(Cl)c3Cl)c(N)n2)CC1", "values": [{"measurement": "pIC50", "value": "< 5.00"}]}]}
